According to patent US5173297A, “Bacteriocin from Lactococcus lactis subspecies lactis” (Quest International Flavors & Food Ingredients Company …, priority 1991, dated 1992):

What was measured:
[1] = tested on: Trypsin; experiment: Effect of treatment with trypsin on antibacterial activity; format: physicochemical; settings: for Titer after trypsin treatment: 20 hour at 40° C., 3200-6400 AU/ml bacteriocin
Method: (§1) Trypsin and chymotrypsin susceptibility of crude and purified bacteriocin was explored. Enzymes were obtained from Sigma (St. Louis, Mo.) and were stored lyophilized at -20° C. until use. Enzymatic reactions were done in a 0.1M ammonium bicarbonate buffer, pH 7.8, containing 0.1 mM calcium chloride (Deutcher, M. P., Meth. Enzymol. 182:611-612 (1990)). Susceptibility was defined as inability of the bacteriocin to inhibit the growth of a lawn of indicator bacteria when applied to the surface of an agar plate containing the bacteria at a rate of 16 units activity in a volume of 5 μl.
(§2) Titer <200 is deemed sensitive to protease action; titer >200 is resistant.
Trypsin digestion was done by 20 hour incubation at 40° C. with 3200-6400 AU/ml bacteriocin concentration.

[2] = target: T1, Chymotrypsin (Bos taurus, UniProt P00766); experiment: Effect of treatment with alpha-chymotrypsin on antibacterial activity; format: physicochemical; settings: for Titer after chymotrypsin treatment: 2 hour at 40° C., 3200-6400 AU/ml bacteriocin
T1 construct: purchased Sigma (St. Louis, Mo.)
Method: as §1, §2
Chymotrypsin digestion was done by 2 hour incubation at 40° C. with 3200-6400 AU/ml bacteriocin concentration.

nisin [Nisin Pure] was tested, and the “sensitive (S) / resistant (R) to protease action” value (shortened to “sensitive (S) / resistant (R)”) ([1]; Trypsin 1 ng/ml) was “R (titer >200 is resistant)”, the “Titer after trypsin treatment” value ([1]; Trypsin 1 ng/ml) was over 200 and the “sensitive (S) / resistant (R)” value ([1]; Trypsin 10 ng/ml) was “S (Titer <200 is deemed sensitive to protease action)”. For the same substance, the “Titer after trypsin treatment” value ([1]; Trypsin 10 ng/ml) was under 200, the “Titer after trypsin treatment” value ([1]; Trypsin 100 ng/ml) was under 200 and the “Titer after trypsin treatment” value ([1]; Trypsin 1 μg/ml) was under 200. The “Titer after trypsin treatment” value ([1]; Trypsin 10 μg/ml) was under 200, the “Titer after trypsin treatment” value ([1]; Trypsin 100 μg/ml) was under 200 and the “sensitive (S) / resistant (R)” value ([1]; Trypsin 1 mg/ml) was “S (Titer <200 is deemed sensitive to protease action)”. For the same substance, the “Titer after trypsin treatment” value ([1]; Trypsin 1 mg/ml) was under 200, the “sensitive (S) / resistant (R)” value ([2]; Chymotrypsin 1 μg/ml) was “R (titer >200 is resistant)” and the “Titer after chymotrypsin treatment” value ([2]; Chymotrypsin 1 μg/ml) was over 200. For the same substance, the “Titer after chymotrypsin treatment” value ([2]; Chymotrypsin 10 μg/ml) was over 200, the “Titer after chymotrypsin treatment” value ([2]; Chymotrypsin 100 μg/ml) was over 200 and the “sensitive (S) / resistant (R)” value ([2]; Chymotrypsin 1 mg/ml) was “R (titer >200 is resistant)”. The “Titer after chymotrypsin treatment” value ([2]; Chymotrypsin 1 mg/ml) was over 200.
